Patent US20240150313A1, “TRI-SUBSTITUTED INDOLE BINDING FUNCTION 3 (BF3) COMPOUNDS AND METHODS FOR THEIR USE” (The University of British Columbia, priority 2021, published 2024)

Experiment: Microsomal stability (half-life)
Assay type: in vitro ADME, human

Fc1cc2c(-c3ccc4ccccc4n3)c[nH]c2c(F)c1F [Compound 13770, 2-(5,6,7-Trifluoro-1H-indol-3-yl)quinoline]
microsome stability: more stable
